Assay results published in BindingDB's records for doi:10.1021/jm030825u (Universit&#224, 2003).

Sequences of proteins named here, by UniProt entry; tags and fusion partners are left off.
UniProt P35368, whole entry: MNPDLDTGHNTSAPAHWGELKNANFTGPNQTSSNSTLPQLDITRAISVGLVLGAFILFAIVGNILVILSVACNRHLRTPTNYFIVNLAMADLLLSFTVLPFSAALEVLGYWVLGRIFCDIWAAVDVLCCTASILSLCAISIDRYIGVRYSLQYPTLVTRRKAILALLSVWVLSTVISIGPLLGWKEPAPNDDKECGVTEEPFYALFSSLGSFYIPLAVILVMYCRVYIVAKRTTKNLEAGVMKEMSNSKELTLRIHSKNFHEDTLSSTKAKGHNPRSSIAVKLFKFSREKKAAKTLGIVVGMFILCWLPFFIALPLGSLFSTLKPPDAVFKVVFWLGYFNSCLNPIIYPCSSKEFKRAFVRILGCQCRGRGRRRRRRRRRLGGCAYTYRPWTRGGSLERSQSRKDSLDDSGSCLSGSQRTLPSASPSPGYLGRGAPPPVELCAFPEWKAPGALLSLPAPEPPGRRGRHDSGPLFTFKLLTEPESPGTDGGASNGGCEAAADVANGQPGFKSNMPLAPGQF

Target: Alpha-1B adrenergic receptor (Homo sapiens, UniProt P35368)
Assay: Inhibition of [3H]-prazosin binding to cloned human Alpha-1B adrenergic receptor in CHO cells (chinese hamster ovary cells)

Which Ki does the source give for `COc1ccccc1N1CCN(CCCNC(=O)c2cccc3c(=O)c(C)c(-c4ccccc4)oc23)CC1` [3-Methyl-4-oxo-2-phenyl-4H-chromene-8-carboxylic acid {3-[4-(2-methoxy-phenyl)-piperazin-1-yl]-propyl}-amide] here?
Its Ki is 3.9 nM.
